# Values of other authors as cited in patent publication US11321826B2, “High throughput method for accurate prediction of compound-induced liver injury” (AGENCY FOR SCIENCE, TECHNOLOGY AND RESEARCH, priority 2016, dated 2022).
# System: human primary renal proximal tubular cells (HPTC) or HPTC-like cells
# Conditions: cited from earlier work
compound,measurement,value
C[C@H]1O[C@H](O[C@H]2[C@H](O)[C@@H](O)[C@@H](O[C@H]3[C@H](O)[C@@H](O)C(O)O[C@@H]3CO)O[C@@H]2CO)[C@H](O)[C@@H](O)[C@@H]1N[C@H]1C=C(CO)[C@@H](O)[C@H](O)[C@H]1O (stereo partly shown) [acarbose],toxicity for the human renal proximal tubular cells,not toxic
